In PMC10567826:

Target: T1, p65 nuclear factor kappa-light-chain-enhancer of activated B cells (NF-κB) (human (endogenous in THP-1-derived macrophages)), Q04206
T1 chain: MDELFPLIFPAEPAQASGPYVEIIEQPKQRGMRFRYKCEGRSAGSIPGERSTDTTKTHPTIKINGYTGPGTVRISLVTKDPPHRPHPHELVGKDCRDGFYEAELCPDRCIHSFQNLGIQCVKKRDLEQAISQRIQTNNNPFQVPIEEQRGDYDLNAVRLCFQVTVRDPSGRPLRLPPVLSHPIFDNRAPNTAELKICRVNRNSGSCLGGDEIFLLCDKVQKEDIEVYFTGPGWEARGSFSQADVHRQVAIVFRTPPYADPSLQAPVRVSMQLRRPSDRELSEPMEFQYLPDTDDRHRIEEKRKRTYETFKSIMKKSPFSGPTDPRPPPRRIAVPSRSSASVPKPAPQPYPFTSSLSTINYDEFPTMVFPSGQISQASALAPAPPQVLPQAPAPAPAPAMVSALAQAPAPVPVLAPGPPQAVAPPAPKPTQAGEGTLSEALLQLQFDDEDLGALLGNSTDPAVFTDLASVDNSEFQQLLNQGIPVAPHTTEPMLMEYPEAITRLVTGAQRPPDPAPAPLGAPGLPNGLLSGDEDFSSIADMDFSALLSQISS
Test: native gel or EMSA; native ('naïve') PAGE of macrophages transfected with or without FLAG-DHX9 and treated with 0, 40 or 80 μg/mL oxLDL; p65 dimer detected
Conditions: remark: other sources report otherwise

B1: p65 nuclear factor kappa-light-chain-enhancer of activated B cells (NF-κB), Q04206 1-551 (natural protein)
chain: MDELFPLIFPAEPAQASGPYVEIIEQPKQRGMRFRYKCEGRSAGSIPGERSTDTTKTHPTIKINGYTGPGTVRISLVTKDPPHRPHPHELVGKDCRDGFYEAELCPDRCIHSFQNLGIQCVKKRDLEQAISQRIQTNNNPFQVPIEEQRGDYDLNAVRLCFQVTVRDPSGRPLRLPPVLSHPIFDNRAPNTAELKICRVNRNSGSCLGGDEIFLLCDKVQKEDIEVYFTGPGWEARGSFSQADVHRQVAIVFRTPPYADPSLQAPVRVSMQLRRPSDRELSEPMEFQYLPDTDDRHRIEEKRKRTYETFKSIMKKSPFSGPTDPRPPPRRIAVPSRSSASVPKPAPQPYPFTSSLSTINYDEFPTMVFPSGQISQASALAPAPPQVLPQAPAPAPAPAMVSALAQAPAPVPVLAPGPPQAVAPPAPKPTQAGEGTLSEALLQLQFDDEDLGALLGNSTDPAVFTDLASVDNSEFQQLLNQGIPVAPHTTEPMLMEYPEAITRLVTGAQRPPDPAPAPLGAPGLPNGLLSGDEDFSSIADMDFSALLSQISS
  stoichiometry N: 2
